Source: patent US20120009203A1, “Depletion of cancer stem cells” (priority 2010, published 2012)

Legend:
[1] = system: hESCs, iPSCs, DPSCs and MSCs; test: 51Cr release NK cell cytotoxicity assay against stem cells; type: cell-based, human; details: IL-2 1000 units/ml, anti-CD16 mAb 3 μg/ml, 12-24 hours; 4 hour 51Cr release; p<0.05
Protocol: (§1) FIG. 4. […] NK cells (1×10^6/ml) were left untreated or treated with IL-2 (1000 units/ml), or anti-CD16 mAb (3 μg/ml) or a combination of IL-2 (1000 units/ml) and anti-CD16 mAb (3 μg/ml) for 12-24 hours before they were added to ^51Cr labeled hESCs. NK cell cytotoxicity was determined using a standard 4 hour ^51Cr release assay, and the lytic units 30/10^6 were determined using inverse number of NK cells required to lyse 30% of the hESCs ×100 (A). NK cells were treated as described in FIG. 4A and each NK sample at (1×10^5/ml) were either cultured in the absence of hESCs or added to hESCs at an NK to hESC ratio of 1:1. After an overnight culture, supernatants were removed from the cultures and the levels of IFN-γ (B), and bFGF (C) secretion were determined using specific ELISAs. One of three representative experiments is shown in this figure.
(§2) FIG. 5. […] NK cells (1×10^6/ml) were left untreated or treated with IL-2 (1000 units/ml), or anti-CD16 mAb (3 μg/ml) or a combination of IL-2 (1000 units/ml) and anti-CD16 mAb (3 μg/ml) for 12-24 hours before they were added to ^51Cr labeled iPS cells and NK cell cytotoxicity was determined using a standard 4 hour ^51Cr release assay, and the lytic units 30/10^6 were determined using inverse number of NK cells required to lyse 30% of the iPS cells ×100 (A). […]

[2] = system: NK cells co-cultured with stem cells; test: IFN-γ ELISA in co-cultures of NK cells with stem cells; type: cell-based, human; details: NK to stem cell ratio 1:1, overnight; IL-2 1000 units/ml, anti-CD16 mAb 3 μg/ml
Protocol: as §1, §2

Question: With “IL-2: Recombinant IL-2 obtained from NIH-BRB, used at 1000 units/ml” as the substance, how does the “effect of treatment of NK cells on cytotoxicity against stem cells” value [1] read?
Answer: increased cytotoxicity against all stem cell populations significantly

Question: And the “IFN-γ secretion by treated NK cells co-cultured with stem cells” value [2]?
Answer: secreted significant levels of IFN-γ
